Measured values as given in patent US20250262315A1 (priority 2021, published 2025).

Experiments:
[1] = Tolerability study with blood chemistry and hematology analysis
[2] = test system: KPL-4 inflammatory breast tumor; test: KPL-4 orthotopic xenograft mouse model of human breast cancer; format: in vivo; conditions: NSG mice
[3] = CD-1 mice, 80 mg kg^−1, serum 5 days post injection

## KADCYLA®: FDA-approved anti-HER2 ADC
[1]; [3]
  ALKP level: appeared to be elevated
  level of BUN: decreased
  levels of AST and ALT: significantly elevated
[1]; CD-1 mice, 80 mg kg^−1, whole blood Day 5
  red blood cell, platelet, and neutrophil counts vs untreated cohort: appeared to decrease platelets and increase neutrophils
[1]; healthy female CD-1 IGS mice, single dose 80 mg kg^−1, 5 days post-injection
  body weight loss (>20%) or other severe clinical symptom: No significant body weight loss
[2]; single i.v. dose 1 mg kg^−1
  median survival time: 35 days
[2]; single i.v. dose 1 mg kg^−1, n=5
  percent tumor growth inhibition (% TGI) on Day 31: 47%
